We go through 30 molecules from PubChem BioAssay AID727 (The Scripps Research Institute Molecular Screening Center, 2007).

Protein sequences, listed by entry. Tags and fused reporters are not part of them.
UniProt Q05397, whole entry: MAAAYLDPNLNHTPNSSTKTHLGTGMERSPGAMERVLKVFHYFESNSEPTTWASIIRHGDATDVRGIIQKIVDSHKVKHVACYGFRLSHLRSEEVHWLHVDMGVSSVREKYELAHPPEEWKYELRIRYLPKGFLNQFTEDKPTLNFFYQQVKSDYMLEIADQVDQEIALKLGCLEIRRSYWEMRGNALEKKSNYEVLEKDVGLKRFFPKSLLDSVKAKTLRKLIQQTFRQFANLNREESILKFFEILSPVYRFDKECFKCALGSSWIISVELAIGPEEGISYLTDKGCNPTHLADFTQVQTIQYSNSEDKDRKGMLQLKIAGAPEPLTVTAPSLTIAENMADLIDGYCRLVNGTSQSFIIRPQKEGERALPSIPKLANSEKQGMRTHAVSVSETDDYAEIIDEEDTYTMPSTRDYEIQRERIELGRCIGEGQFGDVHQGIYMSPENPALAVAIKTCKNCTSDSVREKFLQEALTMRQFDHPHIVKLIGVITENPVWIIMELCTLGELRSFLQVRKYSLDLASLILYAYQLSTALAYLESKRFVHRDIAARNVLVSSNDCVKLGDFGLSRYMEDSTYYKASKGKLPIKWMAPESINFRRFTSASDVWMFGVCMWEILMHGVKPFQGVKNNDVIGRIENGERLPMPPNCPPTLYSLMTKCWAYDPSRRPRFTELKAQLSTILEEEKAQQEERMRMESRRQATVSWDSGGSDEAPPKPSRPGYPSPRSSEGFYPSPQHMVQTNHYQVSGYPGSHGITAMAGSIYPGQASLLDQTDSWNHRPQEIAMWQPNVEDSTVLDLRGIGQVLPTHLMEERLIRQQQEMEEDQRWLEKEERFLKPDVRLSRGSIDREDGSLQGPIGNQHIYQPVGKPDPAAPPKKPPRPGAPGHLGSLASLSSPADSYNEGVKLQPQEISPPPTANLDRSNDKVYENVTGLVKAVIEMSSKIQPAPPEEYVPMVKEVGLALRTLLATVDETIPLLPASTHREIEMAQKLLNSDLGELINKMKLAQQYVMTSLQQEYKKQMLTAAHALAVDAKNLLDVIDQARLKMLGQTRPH

Only a part is listed here, and it is no random draw. Calls of active or inactive are those of the source. Cut-off read from the data, not from the text of the source: active = inhibition above about 19%; inactive = the rest.

The target of this assay is Focal adhesion kinase 1 (Homo sapiens) (UniProt Q05397). Put plainly: FAK kinase inhibitors, primary screen, biochemical (AID 727).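 Note: 0% = DMSO and 100% = reference compound high control.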 The note with it: biochemical FAK kinase activity assay; active compounds read high;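 tested at 7 µM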.
With `Cc1nc2ccc3ccccc3c2s1.O=[N+]([O-])c1cc([N+](=O)[O-])c(O)c([N+](=O)[O-])c1`, the inhibition was inactive: 5.29%.
Under `COc1ccccc1OP(C)(=O)Nc1c(C)cccc1C` (stereo not given) stands inactive: -1.03%; under `Cc1cc(C)cc(OP(C)(=O)Nc2ccccn2)c1` (stereo not given), inactive: -1.07%.
To `Cc1ccc(C)c(NP(C)(=O)Oc2ccccc2)c1` (stereo not given) belongs inactive: 1.99%.
For the molecule `Cc1cc(C)cc(OP(C)(=O)Nc2ccc(C)cc2C)c1` (stereo not given), the inhibition is inactive: 1.07%.
In the case of `COc1ccc(OP(C)(=O)Nc2cccc(F)c2)cc1` (stereo not given), the inhibition was inactive: -1.6%.
Under `CP(=S)(Nn1cnnc1)Oc1ccccc1` (stereo not given) stands inactive: 2.57%; under `CP(=O)(Nc1ccccn1)Oc1ccc(Cl)cc1` (stereo not given), inactive: -1.37%; under `CP(=O)(NC(=O)Nc1ccccc1)Oc1ccccc1` (stereo not given), inactive: 3.65%.
Consider `CP(=O)(Nc1ccc(Cl)cc1)Oc1ccc(F)cc1` (stereo not given), for which the inhibition was inactive: -1.6%.
Take `CC(C)(C)c1ccc(OP(C)(=O)O)cc1`: the inhibition was inactive: -0.28%.
Turning to `CCN(CC)CC(O)COC(=O)C(O)(c1ccccc1)C1CCCCC1` (stereo not given), the inhibition is inactive: 0.6%.
Under `CP(=O)(Oc1ccccc1)N1CCOC1=O` (stereo not given) stands inactive: -1.19%.
To `COc1ccccc1OP(C)(=O)Nc1c(C)n(C)n(-c2ccccc2)c1=O` (stereo not given) belongs inactive: -1.94%; to `CP(=O)(OC12CC3CC(CC(C3)C1)C2)OC12CC3CC(CC(C3)C1)C2`, inactive: 0.36%.
For `Cc1nc2ccc3ccccc3c2o1.O=[N+]([O-])c1cc([N+](=O)[O-])c(O)c([N+](=O)[O-])c1`, the inhibition is inactive: -4.16%.
To `COc1ccccc1OP(C)(=O)Nc1ccc(C)c(C)c1` (stereo not given) belongs inactive: -2.33%; to `Cc1c(NP(C)(=O)Oc2ccc(C(C)C)cc2)c(=O)n(-c2ccccc2)n1C` (stereo not given), inactive: 3.07%.
In the case of `CCc1ccc(OP(C)(=O)O)cc1`, the inhibition was inactive: -5.27%.
To `COc1ccccc1OP(C)(=O)Nc1ccc(C)cc1C` (stereo not given) belongs inactive: 2.51%; to `CP(=O)(Nc1ccccn1)Oc1ccccc1` (stereo not given), inactive: 0.9%.
In the case of `CN(C)CCOC(=O)C(O)(c1ccccc1)C1CCCC1` (stereo not given), the inhibition was inactive: 0.23%.
Under `COc1ccc(OP(C)(=O)Nc2ccccn2)cc1` (stereo not given) stands inactive: -1.31%; under `CP(=O)(Nc1ccccc1F)Oc1ccccc1` (stereo not given), inactive: -0.99%; under `CCN(CC)CCCOC(=O)C(O)(c1ccccc1)C1CCCCC1` (stereo not given), inactive: -0.42%.
Turning to `CP(=O)(Nc1ccccc1)Oc1ccc(F)cc1` (stereo not given), the inhibition is inactive: 0.09%.
Turning to `COc1ccc(OP(C)(=O)Nc2cccc(Br)c2)cc1` (stereo not given), the inhibition was inactive: -2.4%.
To `CN(C)CCOC(=O)C(O)(c1ccccc1)C1CCCCC1` (stereo not given) belongs inactive: -7.03%; to `CP(=O)(Nc1ccc2c(c1)OCCO2)Oc1ccccc1` (stereo not given), inactive: -3.14%; to `CCOP(C)(=S)SCC(=O)NC(C)(CC)C(=O)O` (stereo not given), inactive: -0.72%.

For orientation: inhibition means the change of the read-out against control, counted positive when it falls.
